The values that follow come from PubChem BioAssay AID624418 (National Center for Advancing Translational Sciences (NCATS), 2012).

The list shows a part of the results, in another mix than the full data. Records with an inconclusive call do not appear. The source made the active and inactive calls. Calls come from the whole dose curve; as a rule, active = well fitted inhibition curve with a large enough effect; inconclusive = small, poorly fitted or top-dose-only effect, or another doubt; inactive = no such curve, though single readings can be large or run the other way.
% is set by controls: 0 for no effect and ±100 for the full control effect.

The experiment can be described thus: qHTS of GLP-1 Receptor Inverse Agonists: Cytotox Screen.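 Note: loss of luciferase light is scored as toxicity.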 As to conditions: HEK293 cAMP-luciferase reporter cells, luminescence, 24 h; at 38.3 µM (top of the series). An excerpt: The overall goal of this project was to develop a novel assay for discovering small molecule ligands for class B1 G protein-coupled receptors (GPCRs). Very few agonists (or inverse agonists) with generally weak activity for this entire group of physiologically important receptors are known to date. To establish proof-of-principle that this critical bottleneck can be overcome with a suitable screening approach, our studies focused on the class B1 receptor for glucagon-like peptide-1 (GLP-1R), a potential therapeutic target for diabetes and neurodegenerative disease.
The assay was developed using a cell-based functional readout. Toward this goal, stably transfected HEK293 cell clones were established that co-express (i) a cAMP-responsive luciferase reporter gene, and (ii) constitutively active GLP-1R that upon ligand interaction inhibit (inverse agonists) the luciferase activity. In addition, two control cell lines were developed: (i) one that express only the cAMP-responsive reporter gene to enable initial exclusion of GLP-1R independent effects of candidate probes; and (ii) one with the reported gene cloned with another constitutively active orphan receptor GPR119 to enable exclusion of GLP-1R independent inhibitor effects of candidate inverse agonists.
To that end, this assay was optimized for 1536-well format and screened against the MLSMR. Then the same collection was run in this cytotoxicity assay where inhibition was the undesired outcome.
NIH Molecular Libraries Probe Production Network [MLPCN]
NIH Chemical Genomics Center [NCGC]
PI Name: Martin Beinborn, Tufts Medical Center
Six ul of cell suspension (200 cells/uL in DMEM + 10% Nu serum + 1% pen-strep) is dispensed in a white solid 1536-well plate. The plates are incubated for 12 hours at 37 deg C at 5% CO2 followed by addition of 23 nL compounds. After 24 hr incubation at 37 deg C and 5% CO2, 3 uL of luciferase assay detection reagent is added. A luminescence read is obtained on the PerkinElmer Viewlux after 12 min incubation at room temperature.
(qHTS replaces the single test concentration by a dilution series.)
For `Cc1ccc(C(=O)NCC2(N3CCCCC3)CCCCC2)o1`, the activity change, negative = inhibition is inactive: -22.7%. Then `Fc1ccccc1NC1CCN(Cc2ccccc2)CC1`, with inactive: 9%; and `COc1cc(OC)cc(C(=O)NCC2(N3CCCCC3)CCCCC2)c1`, with inactive: 2.12%; and `O=c1[nH]c2ccccc2n1C1CCN(C(c2ccnc3ccccc23)c2nnnn2C2CCCCC2)CC1` (configuration not stated), with inactive: -1.49%. As for `COc1cccc(C(c2nnnn2C2CCCCC2)N2CCC(n3c(=O)[nH]c4ccccc43)CC2)c1OC` (configuration not stated), the figure is inactive: -29.5%.

For `CN(C)C1(CNC(=O)c2ccc(C(C)(C)C)cc2)CCCCC1`, the activity change, negative = inhibition is inactive: 0.508%. As for `CC(=O)N(c1ccccc1)C1CCNCC1`, the figure is inactive: -5.64%. As for `CCC(c1nnnn1C1CCCCC1)N1CCC(n2c(=O)[nH]c3ccccc32)CC1` (configuration not stated), the figure is inactive: -17.9%. Then `O=c1[nH]c2ccccc2n1C1CCN(C(c2cccc3ccccc23)c2nnnn2C2CCCC2)CC1` (configuration not stated), with inactive: -11.9%; and `CCOC(=O)N1CCC(Nc2cccc(C)c2)CC1`, with inactive: 3.67%; and `COc1cc(C(=O)NCC2(N(C)C)CCCCC2)ccc1OC(F)F`, with inactive: -7.3%.

`O=c1[nH]c2ccccc2n1C1CCN(C(c2ccccc2)c2nnnn2C2CCCCC2)CC1` (configuration not stated): the activity change, negative = inhibition was inactive: -0.57%.

As to `CCCCOc1ccc(C(=O)NCC2(N3CCOCC3)CCCCC2)cc1`, the activity change, negative = inhibition is inactive: -2.37%.

As for `O=P1(N(CCCl)CCCl)SCCCS1`, the activity change, negative = inhibition was inactive: 8.02%. Then `O=C(NCC1(N2CCCCC2)CCCCC1)c1ccc(F)cc1`, with inactive: 0.398%.

For the compound `CCOC(=O)N1CCC(Nc2ccc(F)cc2)CC1`, the activity change, negative = inhibition was inactive: -8.62%. As for `COc1ccc(NC2CCN(CCc3ccccc3)CC2)c(OC)c1`, the figure is inactive: -6.3%; as for `COc1ccccc1C(=O)NCC1(N2CCOCC2)CCCCC1`, inactive: 0.59%; as for `CCOc1ccc(C)cc1CN(CCCl)CCCl`, inactive: 4.58%. As for `CC(C)(C)n1nnnc1C(c1ccccc1)N1CCC(n2c(=O)[nH]c3ccccc32)CC1` (configuration not stated), the figure is inactive: 1.11%; as for `O=C(NCC1(N2CCOCC2)CCCCC1)c1ccc(Cl)cc1`, inactive: 2.89%. As for `O=C1CCN(Cc2ccccc2)CC1`, the activity change, negative = inhibition is inactive: 2.08%. As for `CCOC(=O)N1CCC(Nc2ccc(OC)cc2)CC1`, the figure is inactive: 0.142%. Then `CCCCn1nnnc1C(c1ccc(OC)cc1)N1CCC(n2c(=O)[nH]c3ccccc32)CC1` (configuration not stated), with inactive: -10%; and `N#CC1(Nc2ccccc2)CCN(Cc2ccccc2)CC1`, with inactive: 6.44%; and `O=c1[nH]c2ccccc2n1C1CCN(C(c2cc3ccccc3o2)c2nnnn2C2CCCCC2)CC1` (configuration not stated), with inactive: -5.83%. As for `COc1ccc(Cl)cc1C(=O)NCC1(N2CCOCC2)CCCCC1`, the figure is inactive: 2.24%; as for `O=C1C(O)=C([N+](=O)[O-])C(=O)C(O)=C1[N+](=O)[O-]`, inactive: -0.86%.

`O=C(NCC1(N2CCOCC2)CCCCC1)c1cc2ccccc2o1`: the activity change, negative = inhibition was inactive: -11.8%. Consider `O=C(NCC1(N2CCCCC2)CCCCC1)c1ccc(Cl)nc1`, for which the activity change, negative = inhibition was inactive: -4.55%.

Take `O=c1[nH]c2ccccc2n1C1CCN(C(c2ccccc2OC(F)(F)F)c2nnnn2C2CCCCC2)CC1` (configuration not stated): the activity change, negative = inhibition is inactive: 3.93%. Then `Cc1cc(C)cc(N(C(=O)c2ccccc2)C2CCN(C(=O)OC(C)(C)C)CC2)c1`, with inactive: -4.04%; and `CSc1ccccc1C(=O)NCC1(N2CCCCC2)CCCCC1`, with inactive: -0.57%. Then `Cc1cccc(NC2(C#N)CCN(Cc3ccccc3)CC2)c1`, with inactive: -0.452%. As for `O=C(NCC1(N2CCCCC2)CCCCC1)c1ccc(=O)[nH]c1`, the figure is inactive: -7.71%; as for `CCCCn1nnnc1C(CC)N1CCC(n2c(=O)[nH]c3ccccc32)CC1` (configuration not stated), inactive: -3.88%.

For the compound `O=C(NCC1(N2CCCCC2)CCCCC1)c1cccs1`, the activity change, negative = inhibition is inactive: -5.33%. As for `CCCCn1nnnc1C(c1cccs1)N1CCC(n2c(=O)[nH]c3ccccc32)CC1` (configuration not stated), the figure is inactive: -24.3%.

Turning to `COc1ccc(C(=O)NCC2(N3CCCCC3)CCCCC2)cc1`, the activity change, negative = inhibition was inactive: 5.98%. Then `COc1ccc(C(=O)NCC2(N3CCCCC3)CCCCC2)c(OC)c1OC`, with inactive: 5.63%; and `CC(C)(C)OC(=O)N1CCC(N(C(=O)c2ccccc2)c2ccc(F)cc2)CC1`, with inactive: -7.63%; and `CCC(c1nnnn1C1CCCC1)N1CCC(n2c(=O)[nH]c3ccccc32)CC1` (configuration not stated), with inactive: 2.53%. For `CCCCOc1ccccc1C(=O)NCC1(N2CCOCC2)CCCCC1`, the activity change, negative = inhibition is inactive: -9.39%. Then `Cc1ccc(C(=O)NCC2(N(C)C)CCCCC2)o1`, with inactive: 5.95%. As for `O=C(NCC1(N2CCOCC2)CCCCC1)c1ccccc1Br`, the figure is inactive: -12.9%; as for `CCCOc1ccc(C(=O)NCC2(N(C)C)CCCCC2)cc1OC`, inactive: 19.6%; as for `COc1ccc(C(c2nnnn2C2CCCC2)N2CCC(n3c(=O)[nH]c4ccccc43)CC2)cc1` (configuration not stated), inactive: -16.1%.
